From patent US9637496B2, “Substituted 7-azabicycles and their use as orexin receptor modulators” (priority 2013, dated 2017) come the findings set out here.

Amino acid sequences for entries named in this document (tags omitted).
UniProt O43613, whole entry: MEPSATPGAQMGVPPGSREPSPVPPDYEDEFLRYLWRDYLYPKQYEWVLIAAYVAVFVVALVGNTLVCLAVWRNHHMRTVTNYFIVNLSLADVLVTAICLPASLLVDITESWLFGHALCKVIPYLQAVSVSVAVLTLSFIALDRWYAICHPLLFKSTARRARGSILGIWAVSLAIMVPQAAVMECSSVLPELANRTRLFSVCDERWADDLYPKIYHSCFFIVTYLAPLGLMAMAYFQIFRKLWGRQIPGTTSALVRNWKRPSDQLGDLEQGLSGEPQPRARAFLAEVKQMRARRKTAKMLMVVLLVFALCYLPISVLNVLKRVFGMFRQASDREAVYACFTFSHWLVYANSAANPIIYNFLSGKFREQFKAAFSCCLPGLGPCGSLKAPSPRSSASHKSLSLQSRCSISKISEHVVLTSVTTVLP

The target in this assay is human orexin 1 receptor (Homo sapiens (Human), UniProt O43613). Description: Human orexin 1 receptor radioligand binding (competitive binding, CHO membranes).

As usually defined, the Ki is the dissociation constant of the complex between target and ligand, obtained from inhibition or displacement. `O=C(c1ccccc1-n1nccn1)N1C2CCC1C(Nc1cc(C(F)(F)F)ccn1)C2` (racemic) [Example 210, (±)-((2-(2H-1,2,3-triazol-2-yl)phenyl)(2-((4-(trifluoromethyl)pyridin-2-yl)amino)-7-azabicyclo[2.2.1]heptan-7-yl)methanone] returned a Ki of 128 nM.
